Results taken from US11634381B2, “RUNX2 transcription factor inhibitors and uses thereof” (University of Maryland, Baltimore, priority 2015, dated 2023).

System: MCF7 RUNX2 Tet.OFF cells
Test: Suspension culture tumorsphere formation
Type: cell-based, human
Details: 10 μg/mL Herceptin, 10 days
Protocol: MCF7 Tet.OFF cells were grown in the presence (+Dox, RUNX2 negative) or absence (−Dox, RUNX2 positive) of doxycycline for 3 days. Cells were then scraped and counted. 60,000 cells were plated in each well of a 6-well ultra-low attachment plate (Corning; 3471) in Promocell Basal Medium (Promocell; c-22211) complete with Supplement Mix (Promocell; c-39216). Cells were then treated with or without 2 ng/mL TGFβ (R&D Systems; 240-B-002). After growth for 10-15 days, wells were photographed and tumorsphere diameters were measured from photographic images (mm). Colony diameters were calculated using the formula: (L+W)/2. Representative photographs were obtained at 4× magnification. […] For TAZ siRNA knockdown experiments, TAZ siRNA was transfected (as below) into MCF7 Tet.OFF cells and 24 hr later cells were scraped and placed into suspension as described above. Small-Interfering RNA (siRNA) pool targeting RUNX1, RUNX2, and non-targeting control were purchased from Dharmacon, and transfected into cells using RNAiMAX Reagent (Invitrogen). Western blot analysis was performed 48 hrs after transfection.

In the case of “Herceptin: monoclonal antibody that binds the extracellular domain of HER2”, the tumorsphere size (RUNX2 negative cells) is reported as 7.2±3.27 mm and the tumorsphere size (RUNX2 positive cells, TGFβ) is reported as 5.76±2.83 mm.
